The entries are a selection whose mix differs from that of the whole data set. Calls of active or inactive are those of the source. Rule as the data show it: active = activation above about 4.9%; inactive = the rest.
biological target: G-protein coupled receptor 151 (Homo sapiens) (UniProt Q8TDV0); assay: activates the human receptor GPR151, primary screen, cell-based, PathHunter beta-arrestin, luminescence (AID 1508602); conditions: PathHunter beta-arrestin GPR151 cells, at 11.2 µM, stronger effect = higher value;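 also: 0% = median of compound wells and 100% = cells with positive control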

Chains of the proteins cited; added tags and fusions are not shown.
UniProt Q8TDV0, whole entry: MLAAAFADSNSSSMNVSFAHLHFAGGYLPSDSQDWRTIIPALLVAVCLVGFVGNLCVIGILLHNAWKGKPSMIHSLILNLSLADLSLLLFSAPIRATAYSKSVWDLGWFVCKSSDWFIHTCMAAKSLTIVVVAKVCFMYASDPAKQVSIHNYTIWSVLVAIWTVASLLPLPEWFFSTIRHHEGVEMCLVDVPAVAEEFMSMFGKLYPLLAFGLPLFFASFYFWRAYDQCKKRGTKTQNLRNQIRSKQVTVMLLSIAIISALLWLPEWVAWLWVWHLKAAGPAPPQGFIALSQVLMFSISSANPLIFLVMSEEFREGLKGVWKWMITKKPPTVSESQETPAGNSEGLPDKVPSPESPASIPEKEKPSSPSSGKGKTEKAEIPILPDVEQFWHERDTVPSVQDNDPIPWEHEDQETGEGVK

Structure (SMILES)	activation
CN(CCCl)CCCl	inactive: 0.158%
